# From paper PMC12508063, “Chloroindazole based estrogen receptor β ligands with favorable pharmacokinetics promote functional remyelination and visual recovery” (Scientific Reports, 2025)
# The chains behind the UniProt entries cited, without tags or fusion partners.
# UniProt P33261, whole entry: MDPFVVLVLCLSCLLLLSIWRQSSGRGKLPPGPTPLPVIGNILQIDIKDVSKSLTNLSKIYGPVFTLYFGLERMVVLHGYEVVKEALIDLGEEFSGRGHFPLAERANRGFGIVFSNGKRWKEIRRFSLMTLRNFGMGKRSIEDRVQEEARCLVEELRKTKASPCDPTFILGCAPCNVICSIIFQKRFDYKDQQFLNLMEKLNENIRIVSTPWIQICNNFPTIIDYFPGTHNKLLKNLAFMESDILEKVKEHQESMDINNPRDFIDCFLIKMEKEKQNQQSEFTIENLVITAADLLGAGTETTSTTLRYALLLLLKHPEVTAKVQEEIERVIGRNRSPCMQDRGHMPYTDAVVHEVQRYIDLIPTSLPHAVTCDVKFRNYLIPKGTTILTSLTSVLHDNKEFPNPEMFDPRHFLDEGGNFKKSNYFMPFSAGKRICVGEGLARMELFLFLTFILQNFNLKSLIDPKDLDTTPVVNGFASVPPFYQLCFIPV
# Molecular target: CYP2C19 (Homo sapiens, UniProt P33261)
# Assay: CYP inhibition
# Details: test compounds at 10 μM; substrate Mephenytoin
smiles,measurement,value
N[C@@H]1C[C@H]1c1ccccc1 (racemic) [Tranylcypromine],CYP Inhibition Percentage CYP2C19,83.95%
